The values below come from patent US12391685B2, “Inhibitors of RNA-guided nuclease target binding and uses thereof” (THE BROAD INSTITUTE, INC., priority 2018, dated 2025).

By UniProt entry, the sequences of proteins in these tests, tags left out. Where a name states a change or a piece, a line headed by the entry shows the natural chain unless it says otherwise.
UniProt P14739: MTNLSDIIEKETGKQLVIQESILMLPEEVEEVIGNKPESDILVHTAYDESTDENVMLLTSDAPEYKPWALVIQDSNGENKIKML
UniProt P38483: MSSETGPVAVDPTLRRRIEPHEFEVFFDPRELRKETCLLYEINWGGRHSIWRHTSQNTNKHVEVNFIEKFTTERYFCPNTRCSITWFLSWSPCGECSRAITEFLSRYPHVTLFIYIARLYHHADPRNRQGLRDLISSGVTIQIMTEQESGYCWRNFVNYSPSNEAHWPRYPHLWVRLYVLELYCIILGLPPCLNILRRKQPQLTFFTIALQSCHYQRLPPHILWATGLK
UniProt Q99ZW2: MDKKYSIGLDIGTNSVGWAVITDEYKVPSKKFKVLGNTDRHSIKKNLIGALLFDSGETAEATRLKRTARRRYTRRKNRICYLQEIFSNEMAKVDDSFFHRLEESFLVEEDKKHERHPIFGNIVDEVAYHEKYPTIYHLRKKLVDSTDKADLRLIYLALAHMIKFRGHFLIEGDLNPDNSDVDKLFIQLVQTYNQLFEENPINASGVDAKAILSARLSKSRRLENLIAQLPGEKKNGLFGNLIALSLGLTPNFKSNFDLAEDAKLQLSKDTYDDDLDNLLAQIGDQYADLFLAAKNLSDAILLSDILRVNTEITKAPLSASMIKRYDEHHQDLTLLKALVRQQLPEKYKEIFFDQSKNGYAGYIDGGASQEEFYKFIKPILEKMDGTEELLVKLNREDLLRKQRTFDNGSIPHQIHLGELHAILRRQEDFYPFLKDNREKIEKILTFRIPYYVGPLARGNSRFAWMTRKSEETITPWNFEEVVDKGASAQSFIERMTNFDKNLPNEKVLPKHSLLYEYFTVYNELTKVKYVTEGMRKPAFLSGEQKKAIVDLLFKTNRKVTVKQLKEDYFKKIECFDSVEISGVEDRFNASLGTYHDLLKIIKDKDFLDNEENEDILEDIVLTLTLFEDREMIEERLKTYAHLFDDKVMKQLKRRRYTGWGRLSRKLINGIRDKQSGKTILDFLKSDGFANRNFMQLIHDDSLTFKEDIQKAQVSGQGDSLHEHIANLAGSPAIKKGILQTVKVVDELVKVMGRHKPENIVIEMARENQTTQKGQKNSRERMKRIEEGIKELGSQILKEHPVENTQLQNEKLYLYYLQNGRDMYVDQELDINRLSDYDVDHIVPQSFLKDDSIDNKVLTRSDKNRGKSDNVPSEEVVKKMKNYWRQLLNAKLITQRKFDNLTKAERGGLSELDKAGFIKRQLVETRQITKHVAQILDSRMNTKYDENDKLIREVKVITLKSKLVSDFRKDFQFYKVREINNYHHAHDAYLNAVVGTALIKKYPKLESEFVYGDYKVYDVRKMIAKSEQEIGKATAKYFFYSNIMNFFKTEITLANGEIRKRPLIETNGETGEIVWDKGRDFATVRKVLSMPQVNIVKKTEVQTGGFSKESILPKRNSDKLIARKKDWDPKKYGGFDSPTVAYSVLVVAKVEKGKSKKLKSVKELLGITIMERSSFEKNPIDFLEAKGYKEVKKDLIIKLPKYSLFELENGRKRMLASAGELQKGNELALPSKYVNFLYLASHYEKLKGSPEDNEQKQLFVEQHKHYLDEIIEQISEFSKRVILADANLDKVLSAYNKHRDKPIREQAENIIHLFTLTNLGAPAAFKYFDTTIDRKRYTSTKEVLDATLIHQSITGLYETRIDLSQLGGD

The target in the assay is T1, SpCas9 (A840H)-cytidine deaminase conjugate (BE3) (UniProt P14739+P38483+Q99ZW2, D10A).
T1 construct: His6 (N); made in house; host or cells: BL21 Star (DE3) E. coli; the protein:sgRNA complex was lipofected into HEK293T cells
The experiment in a line: Base editing of EMX1 gene by BE3 in HEK293T cells. The format is cell-based. The following applies: 20 μM, 72 h. On the procedure:
Analysis of base-edited sequences. Nucleotide frequencies were analyzed using a previously described MATLAB script (Komor et al., 2016b). Briefly, the reads were aligned to the reference sequence via the Smith-Waterman algorithm. Base calls with Q-scores below 30 were replaced with a placeholder nucleotide (N). This quality threshold results in nucleotide frequencies with an expected theoretical error rate of 1 in 1,000. To distinguish small molecule-induced inhibition of C→T editing from artefactual C→T editing, Applicants compared the sequencing reads from cells treated with base-editor in the presence of small molecule to the sequencing reads from base-edited cells not exposed to small molecule. A Student's two-tailed t-test was used to determine if inhibition of C→T editing by small-molecule is statistically significant with P<0.05 as the threshold.
Protein transfection of base editor BE3 into HEK293T cells. […]
Purifications and sequencing of genomic DNA. […] Barcoded samples were pooled and purified by gel extraction (Qiagen) before quantification using the Qubit dsDNA HS Kit (Thermo Fisher) and qPCR (KAPA BioSystems) according to the manufacturer's instructions. Sequencing of pooled samples was performed using a single-end read from 260 to 300 bases (MiSeq, Illumina) according to the manufacturer's instructions.

Consider `COc1ccc(-c2ccc3c(c2)[C@H]2[C@H](CCN2Cc2ccncc2)[C@@H](CO)N3)cc1` [BRD5779, ((3aR,4S,9bR)-8-(4-Methoxyphenyl)-1-(pyridin-4-ylmethyl)-2,3,3a,4,5,9b-hexahydro-1H-pyrrolo[3,2-c]quinolin-4-yl) methanol], for which the “reduction in C→T conversion” value was “two-fold”.
For `OC[C@H]1Nc2ccc(-c3cccc(F)c3)cc2[C@H]2[C@@H]1CCN2Cc1ccncc1` [BRD7087, ((3aR,4S,9bR)-8-(3-Fluorophenyl)-1-(pyridin-4-ylmethyl)-2,3,3a,4,5,9b-hexahydro-1H-pyrrolo[3,2-c]quinolin-4-yl) methanol] the value was “two-fold”.
